Experiment [1] deals with Nucleolysin TIA-1 (endogenous mouse TIA1) (mouse) (UniProt P52912). Nature of the experiment: TIA1 IP-MS, tau KO 1 cortex.
For experiment [2] the target is unchanged. Nature of the experiment: TIA1 IP-MS, tau KO 2 cortex.
Experiment [3] shares this target. Nature of the experiment: TIA1 IP-MS, tau KO 3 cortex.
Experiment [4] has the same target. Nature of the experiment: TIA1 IP-MS, WT2 cortex.
Experiment [5] shares this target. Nature of the experiment: TIA1 IP-MS, WT3 cortex.
For experiment [6] the target is unchanged. Nature of the experiment: TIA1 IP-MS, WT1 cortex.

The values below come from US20190142860A1, “NUCLEIC ACID BASED TIA-1 INHIBITORS” (Aquinnah Pharmaceuticals, Inc., priority 2015, published 2019).

Consider “40S ribosomal protein S3 (from UniProt P62908 2-243)”, for which the total ion current (normalized to TIA1 = 1000) turned out to be 67.1 in experiment [1]; 0 in experiment [2]; 0 in experiment [3]; 0 in experiment [4]; 0 in experiment [5]; 4.38 in experiment [6].
Turning to “40S ribosomal protein S4, X isoform (from UniProt P62702 2-263)”, the total ion current (normalized to TIA1 = 1000) in experiment [1] is 2.94; in experiment [2], 0; in experiment [3], 0; in experiment [4] it was 152; in experiment [5], 0; in experiment [6], 5.82.
Turning to “60S ribosomal protein L7 (from UniProt P14148 1-270)”, the total ion current (normalized to TIA1 = 1000) in experiment [1] came to 0; in experiment [2] it was 0; in experiment [3], 0; in experiment [4], 46.9; in experiment [5], 110; in experiment [6], 35.8.
With “Isoform 1 of Voltage-dependent L-type calcium channel subunit beta-4 (from UniProt Q8R0S4 1-486)”, the total ion current (normalized to TIA1 = 1000) in experiment [1] amounted to 0; in experiment [2], 31.1; in experiment [3], 0; in experiment [4] it was 172; in experiment [5], 0; in experiment [6], 0.
Take “60S ribosomal protein L6 (from UniProt P47911 1-296)”: the total ion current (normalized to TIA1 = 1000) in experiment [1] came to 0; in experiment [2] it was 0; in experiment [3] it was 0; in experiment [4], 0; in experiment [5], 0; in experiment [6], 12.7.
As to “Ribosomal protein (Rpl10a) (from UniProt P53026 2-217)”, the total ion current (normalized to TIA1 = 1000) in experiment [1] was 8.16; in experiment [2] it was 0; in experiment [3], 0; in experiment [4], 0; in experiment [5], 0; in experiment [6], 3.24.
Turning to “60S ribosomal protein L13a (from UniProt P19253 2-203)”, the total ion current (normalized to TIA1 = 1000) came out at 20.1 in experiment [1]; 0 in experiment [2]; 0 in experiment [3]; 0 in experiment [4]; 0 in experiment [5]; 10.3 in experiment [6].
Take Fascin (from UniProt Q61553 2-493): the total ion current (normalized to TIA1 = 1000) is 0 in experiment [1]; 66.6 in experiment [2]; 0 in experiment [3]; 138 in experiment [4]; 0 in experiment [5]; 0 in experiment [6].
Take “Isoform 2 of cAMP-dependent protein kinase catalytic subunit beta (from UniProt P68181 1-338)”: the total ion current (normalized to TIA1 = 1000) in experiment [1] came to 0; in experiment [2], 189; in experiment [3], 0; in experiment [4] it was 385; in experiment [5], 41.4; in experiment [6], 0.
On to “Polyubiquitin-B (from UniProt P0CG49 1-76)”, for which the total ion current (normalized to TIA1 = 1000) in experiment [1] was 0; in experiment [2] it was 180; in experiment [3], 0; in experiment [4] it was 283; in experiment [5], 368; in experiment [6], 0.
“60S ribosomal protein L13 (from UniProt P47963 1-211)”: the total ion current (normalized to TIA1 = 1000) in experiment [1] was found to be 19.8; in experiment [2], 0; in experiment [3] it was 525; in experiment [4], 71.6; in experiment [5], 0; in experiment [6], 4.44.
Take “GTP-binding nuclear protein Ran (from UniProt P62827 2-216)”: the total ion current (normalized to TIA1 = 1000) in experiment [1] turned out to be 0; in experiment [2], 161; in experiment [3], 0; in experiment [4], 365; in experiment [5], 221; in experiment [6] it was 0.
For the substance “Isoform 2 of cAMP-dependent protein kinase catalytic subunit alpha (from UniProt P05132 2-343)”, the total ion current (normalized to TIA1 = 1000) in experiment [1] turned out to be 0; in experiment [2] it was 144; in experiment [3], 0; in experiment [4], 275; in experiment [5] it was 41.4; in experiment [6], 0.
For the substance “Small nuclear ribonucleoprotein-associated protein B (from UniProt P27048 1-231)”, the total ion current (normalized to TIA1 = 1000) in experiment [1] worked out at 23.4; in experiment [2] it was 85.1; in experiment [3], 0; in experiment [4] it was 554; in experiment [5], 108; in experiment [6], 19.
Regarding “Glucose-6-phosphate isomerase (from UniProt P06745 2-558)”, the total ion current (normalized to TIA1 = 1000) came out at 0 in experiment [1]; 162 in experiment [2]; 0 in experiment [3]; 132 in experiment [4]; 34.9 in experiment [5]; 0 in experiment [6].
